Data on one molecule can be found in patent US20160052926A1, “NOVEL PYRIMIDINE AND PYRIDINE COMPOUNDS AND USAGE THEREOF” (HUTCHISON MEDIPHARMA LIMITED, priority 2013, published 2016).

The chains behind the UniProt entries cited, without tags or fusion partners. Residues count along the entry.
UniProt P11362, 22-822: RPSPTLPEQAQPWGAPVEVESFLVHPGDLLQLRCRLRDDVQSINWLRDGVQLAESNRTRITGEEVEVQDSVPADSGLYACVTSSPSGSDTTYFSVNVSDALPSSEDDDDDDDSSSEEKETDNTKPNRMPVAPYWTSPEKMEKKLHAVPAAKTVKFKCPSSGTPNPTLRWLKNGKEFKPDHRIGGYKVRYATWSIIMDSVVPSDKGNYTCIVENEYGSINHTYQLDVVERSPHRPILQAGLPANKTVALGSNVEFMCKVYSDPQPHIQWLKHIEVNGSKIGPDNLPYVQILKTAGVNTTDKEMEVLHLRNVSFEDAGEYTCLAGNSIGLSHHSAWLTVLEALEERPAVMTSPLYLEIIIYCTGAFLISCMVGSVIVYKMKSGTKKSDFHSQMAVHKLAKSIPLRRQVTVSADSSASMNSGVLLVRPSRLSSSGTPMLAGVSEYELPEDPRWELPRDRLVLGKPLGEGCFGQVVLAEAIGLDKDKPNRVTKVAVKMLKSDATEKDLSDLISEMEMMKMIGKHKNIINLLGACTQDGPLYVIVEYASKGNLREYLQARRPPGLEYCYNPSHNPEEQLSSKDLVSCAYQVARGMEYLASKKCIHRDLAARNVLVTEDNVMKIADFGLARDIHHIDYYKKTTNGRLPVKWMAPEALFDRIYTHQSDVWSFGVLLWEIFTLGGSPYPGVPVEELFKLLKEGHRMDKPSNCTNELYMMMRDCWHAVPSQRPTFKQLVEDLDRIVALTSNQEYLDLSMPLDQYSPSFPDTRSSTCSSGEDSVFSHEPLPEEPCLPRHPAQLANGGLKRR

The test concerns the target Recombinant human FGFR1 (Homo sapiens, UniProt P11362). The experiment in a line: Transcreener Kinase Assay of FGFR1. Format: biochemical. The note with it: read-out: FGFR1 (FP) IC50. The protocol:
Transcreener Kinase Assay of FGFR1
Prepare Solution • Compounds were solved in DMSO and were diluted with assay buffer to 5 folds of final concentration keeping the DMSO concentration at 5%. Further dilution are needed to make final concentrations are at 1, 0.33, 0.11, 0.037, 0.012, 0.004, 0.0014, 0.0005 μM; (the final concentration of DMSO is 1%). • Enzyme/Substrate stock Preparation: Recombinant human FGFR1 and Poly E4Y are both diluted in assay buffer.
Enzymatic Reaction • In a 96-well plate, Add 5 μL of compound or control. (positive control: 5 μL of 5% DMSO; negative control: 5 μL of 500 mM EDTA) into desired wells; • Add 10 μL of Enzyme/Substrate stock into each well; • Add 10 μL of ATP Diluents to initiate the enzyme reaction and votex the plate immediately on a plate shaker; • For the wells to make standard curve, add 5 μL of 5% DMSO, 10 μL of assay buffer and 10 μL of ATP standard curve stock. • Incubate the plate for 45 min at 28[…] on a plate shaker in a low speed. […]
• [ADP] in Compound well represents the ADP concentration in compound well. • [ADP] in Positive control well represents the ADP concentration in 5% DMSO well • Conversion of mP value to ADP concentration is calculated based on the formula which determined by standard curve. And mP value is measured by following the instruction provided by BellBrook Labs. […] IC50: calculated using XL-Fit 2.0 software.

As to `CCS(=O)(=O)n1cc(Nc2ncc(CCc3cc(C(=O)NC)cc(OC)c3F)cn2)cn1` [Compound 140, 3-(2-(2-(1-(ethylsulfonyl)-1H-pyrazol-4-ylamino)pyrimidin-5-yl)ethyl)-4-fluoro-5-methoxy-N-methylbenzamide], the half-inhibitory concentration (IC50) (as a rule, the concentration that inhibits the measured activity by half) was 0.038 µM.
